Measurements from patent publication US20030119716A1, “Methods for screening, treating and diagnosing G-protein coupled receptor-related disorders and compositions thereof” (Wyeth, priority 2001, published 2003).

Assays:
Format in all cases: cell-based, Chinese hamster
Erk1/2 phosphorylation = assay: Western blot of phospho-Erk1/2 in CHO-D2R cells
Method: Luciferase and β-Gal activities were measured after incubation with quinpirole for 5 hours. Numbers shown represent at least two independent experiments, each with triplicate transfections. […] Cell lysates were prepared by incubating cells for 5 minutes on ice with a lysis buffer containing […] NaCl, 50 mM Tris, pH 7.5, 5 mM EDTA, 1% Triton, and a mixture of protease inhibitors. Cells were then scraped off plates and sonicated. The detergent-insoluble material was removed by microcentrifugation for 10 minutes at 4° C. An equal amount of protein was run on SDS gels (Novex, Carlsbad, Calif.) and transferred to nitrocellulose (Bio-Rad, Hercules, Calif.). […] The membrane was washed, incubated for 1 hour in TBS containing appropriate HRP-conjugated secondary antibodies, washed again, and developed with the ECL reagent (Amersham Pharmacia Biotech, Piscataway, N.J.).

[1] = system: c-fos SRE activation in CHO cells stably expressing D2R; assay: SRE-luciferase reporter assay, quinpirole-stimulated c-fos SRE activation in CHO-D2R cells
Akt phosphorylation = assay: Western blot of phospho-Akt in CHO-D2R cells

CCCN1CCC[C@@H]2Cc3n[nH]cc3C[C@H]21 [quinpirole]
Erk1/2 phosphorylation on quinpirole stimulation (Erk1/2 phosphorylation): resulted in phosphorylation of Erk1/2
SRE activation on quinpirole stimulation [1]: dose-dependent SRE activation; also recorded: stimulates c-fos SRE activation
induction of the luciferase activity (SRE activation) [1]: approximately 7 fold
maximal activation of the SRE-reporter gene [1]: about 20 fold
Akt phosphorylation on quinpirole stimulation (Akt phosphorylation): elicited phosphorylation of Akt

“Also recorded” adds a separate entry of the source.
